Tested on: RAFLS p-gp over expression
Test: MTT cytotoxicity assay, RAFLS overexpressed with P-gp
Details: RAFLS p-gp over expression vs RAFLS

Structure (SMILES)	Resistant Factor
C[C@@H]1C[C@H]2[C@@H]3CCC4=CC(=O)C=C[C@]4(C)[C@@]3(F)[C@@H](O)C[C@]2(C)[C@@]1(O)C(=O)CO [Dexamethasone, dexamethasone]	3.33
C[C@]12C=CC(=O)C=C1CC[C@@H]1[C@@H]2[C@@H](O)C[C@@]2(C)[C@H]1CC[C@]2(O)C(=O)CO [Prednisolone, prednisolone]	1.76

— patent US10688105B2 (dated 2020)
